From publication PMC10656230, “Disruption of the productive encounter complex results in dysregulation of DIAPH1 activity” (The Journal of Biological Chemistry, 2023)
“Also recorded” adds a separate entry of the source.

By UniProt entry, the sequences of proteins in these tests, tags left out. Residues count along the entry.
UniProt O60610, 142-380 E326G/E327A: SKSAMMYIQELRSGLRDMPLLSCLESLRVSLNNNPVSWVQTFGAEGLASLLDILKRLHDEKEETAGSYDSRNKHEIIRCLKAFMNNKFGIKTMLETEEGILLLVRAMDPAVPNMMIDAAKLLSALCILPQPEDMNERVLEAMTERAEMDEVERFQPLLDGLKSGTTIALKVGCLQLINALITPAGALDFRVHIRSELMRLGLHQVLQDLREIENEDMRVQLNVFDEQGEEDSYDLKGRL

Tests used:
DID^E326G/E327A [1] = target: T1, DID^E326G/E327A (Homo sapiens, UniProt O60610, E326G/E327A); assay: Tryptophan fluorescence titration, DID^E326G/E327A–DAD^M1199L binding; conditions: vs WT DID
T1 construct: N-terminal his-tagged DID, residues 142 to 380 from human DIAPH1 (UniProt O60610); made in house; host or cells: Escherichia coli BL21(DE3), by the same protocol as DID

DID^E326G/E327A [2] = target: T1, DID^E326G/E327A; assay: Stopped flow fluorescence association kinetics, DID^E326G/E327A–DAD^M1199L; format: binding; conditions: DID^E326G/E327A vs WT DID
[3] = tested on: vascular smooth muscle cells (RAGE); conditions: RAGE stimulation; cited from earlier work
Experimental: To further test the functional importance of the RRKR motif, we examined RAGE signal transduction ([7], [8], [9]). […] Human SMCs were transfected with plasmids-expressing yellow fluorescent protein (YFP), DIAPH1-YFP, DIAPH1^ΔDAD-YFP, and DIAPH1^E326G/E327A-YFP, and the cells were treated with 1 μM of CML-HSA (Fig. 6C). […] Note that efficient cellular migration relies on regulation of actin polymerization/depolymerization and, thus, dysregulation leads to reduced migration ([49], [50], [51]).

Substance	decrease in binding affinity on neutralizing the DID cavity (E326G/E327A) (DID^E326G/E327A [1]) [fold]	decrease in kon (association rate constant) (DID^E326G/E327A [2]) [fold]	migration of vascular smooth muscle cells [3]
DETGVMDSLLEALQSGAAFRRKRGPRQAN [DAD, 29-residue DAD peptide corresponding to WT residues 1194 to 1222 (UniProt O60610)]	5	4	
carboxymethyllysine human serum albumin [CML-HSA]			DIAPH1-dependent increase in migration of vascular smooth muscle cells; also recorded: SMC migration is increased
